Laboratory results as given in patent publication US20130011378A1, “Stable formulations of a hyaluronan-degrading enzyme” (priority 2011, published 2013).

Tests used:
rHuPH20 = target: T1, rHuPH20 (Homo sapiens, UniProt P38567); assay: Determination of hyaluronidase activity of rHuPH20, turbidimetric assay (Example 2, variant not specified); format: biochemical; details: stabilizer screening in rHuPH20/insulin formulation, semi-quantitative in comparison with NaCl; samples incubated at 30° C. for about one week
T1 construct: made in house; host or cells: CHO cells (DG44 CHO, HZ24 plasmid, clone 2B2)
T1 sequence (P38567 36-482): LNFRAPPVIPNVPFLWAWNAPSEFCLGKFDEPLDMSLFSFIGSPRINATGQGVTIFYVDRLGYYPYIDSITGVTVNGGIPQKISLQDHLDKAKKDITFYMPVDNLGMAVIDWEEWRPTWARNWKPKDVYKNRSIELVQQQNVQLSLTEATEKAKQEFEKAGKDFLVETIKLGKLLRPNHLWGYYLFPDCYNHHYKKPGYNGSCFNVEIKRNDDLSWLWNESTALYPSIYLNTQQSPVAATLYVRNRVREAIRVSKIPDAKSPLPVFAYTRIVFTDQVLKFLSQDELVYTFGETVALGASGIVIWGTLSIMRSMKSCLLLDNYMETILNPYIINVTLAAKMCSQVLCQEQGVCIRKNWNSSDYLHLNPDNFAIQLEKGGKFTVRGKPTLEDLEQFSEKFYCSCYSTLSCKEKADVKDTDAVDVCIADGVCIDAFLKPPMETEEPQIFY

[1] = RP-HPLC: insulin apparent solubility / percent recovery; details: stabilizer screening in rHuPH20/insulin formulation, semi-quantitative in comparison with NaCl, samples stored at 5° C.
Protocol: Apparent solubility was measured as the percent insulin recovery as compared to the initial formulations/conditions.
Samples were prepared by withdrawing 100 μL from each vial at every time point and centrifuging prior to loading. Samples were stored in an autosampler at 4° C. prior to use, and were considered stable for 3 days after preparation. All samples were tested in duplicate.
For insulin, 20 μL was injected for each HPLC run.
To determine the apparent solubility, the peak area of insulin/insulin analog main peak and desamido peak were integrated and combined together to calculate the percentage relative to the standards. […] The data were processed using Design-Expert® 7.0 (StatEase) and the “historical data” feature. Insulin percent purity was expressed as the percent of main insulin versus all insulin species.

Human serum albumin
Effect on rHuPH20 enzymatic activity (rHuPH20): No effect | Effect on insulin solubility [1]: No effect
